Assays:
[1] = biological target: Histamine H3 receptor (Rattus norvegicus, UniProt Q9QYN8); test: Binding affinity to rat histamine H3 receptor
[2] = biological target: Histamine H4 receptor (Rattus norvegicus) (UniProt Q91ZY1); settings: HEK293
[3] = biological target: Histamine H3 receptor (Homo sapiens, UniProt Q9Y5N1)

Amino acid sequences for entries named in this document (tags omitted). A change or cut given only in a name is not applied to a line headed by its entry.
UniProt Q9QYN8: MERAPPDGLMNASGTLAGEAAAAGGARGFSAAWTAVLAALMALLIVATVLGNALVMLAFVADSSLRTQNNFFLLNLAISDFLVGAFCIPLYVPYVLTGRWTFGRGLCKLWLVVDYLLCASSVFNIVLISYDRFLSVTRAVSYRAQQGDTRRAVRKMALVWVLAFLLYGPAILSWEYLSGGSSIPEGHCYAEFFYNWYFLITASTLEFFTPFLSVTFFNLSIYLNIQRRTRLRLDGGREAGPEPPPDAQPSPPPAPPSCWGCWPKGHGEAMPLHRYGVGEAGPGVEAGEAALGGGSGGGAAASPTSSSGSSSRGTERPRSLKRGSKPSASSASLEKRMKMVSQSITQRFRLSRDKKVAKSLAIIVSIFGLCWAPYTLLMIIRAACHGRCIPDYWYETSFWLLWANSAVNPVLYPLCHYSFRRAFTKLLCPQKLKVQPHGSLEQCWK
UniProt Q91ZY1: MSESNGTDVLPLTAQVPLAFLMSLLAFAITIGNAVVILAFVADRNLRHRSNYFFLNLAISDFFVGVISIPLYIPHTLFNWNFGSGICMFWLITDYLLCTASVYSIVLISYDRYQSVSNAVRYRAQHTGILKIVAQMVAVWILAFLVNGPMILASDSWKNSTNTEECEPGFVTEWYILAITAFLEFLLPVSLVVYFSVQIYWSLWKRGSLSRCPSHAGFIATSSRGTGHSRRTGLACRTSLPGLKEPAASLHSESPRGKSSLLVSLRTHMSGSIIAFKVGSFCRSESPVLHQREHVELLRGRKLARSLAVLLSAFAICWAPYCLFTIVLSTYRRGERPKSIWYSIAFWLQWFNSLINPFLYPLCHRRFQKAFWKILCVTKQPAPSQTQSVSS
UniProt Q9Y5N1: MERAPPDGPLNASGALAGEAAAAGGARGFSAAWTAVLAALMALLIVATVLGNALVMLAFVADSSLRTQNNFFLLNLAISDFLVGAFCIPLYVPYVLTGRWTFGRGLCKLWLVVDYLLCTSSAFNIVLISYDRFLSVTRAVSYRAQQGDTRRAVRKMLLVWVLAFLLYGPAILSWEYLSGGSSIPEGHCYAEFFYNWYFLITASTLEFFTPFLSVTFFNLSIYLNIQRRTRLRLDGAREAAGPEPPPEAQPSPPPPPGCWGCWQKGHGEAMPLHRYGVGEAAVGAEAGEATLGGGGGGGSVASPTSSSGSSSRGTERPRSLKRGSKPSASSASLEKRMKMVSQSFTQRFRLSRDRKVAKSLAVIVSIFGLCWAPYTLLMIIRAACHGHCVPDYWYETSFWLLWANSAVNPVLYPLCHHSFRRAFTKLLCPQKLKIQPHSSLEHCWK

SMILES	Ki [1] [µM]	pKb [2]	pKb [3]
CN1CCN(C(=O)c2cc3cc(Cl)ccc3[nH]2)CC1 [JNJ-7777120]	1.32		
CN1CCN(c2cc(-c3ccc(C#N)cc3)nc(N)n2)CC1		6.21	6.5

From ChEMBL document CHEMBL1140148, “Structure-activity studies on a series of a 2-aminopyrimidine-containing histamine H4 receptor ligands” (J Med Chem, 2008)
